Results as given in patent US20080286301A1, “Treatment of diabetes” (priority 1997, published 2008).

Test system: normal volunteers
Test: Sustacal meal preceded by subcutaneous injection of GLIP in normal volunteers (Example 4)
Format: in vivo, human
Procedure: 7 normal volunteers were studied after ingestion of a Sustacal meal either alone or immediately preceded by a subcutaneous injection of 100 μg GLIP.
Results are shown in FIG. 4. *indicates statistically significant differences between treatments (p<0.05).

**Q.** “Glucagon-like peptide 1(7-36)amide [GLIP]” was tested. Which “delays in increase in blood levels, relative to 100 μg dose” value (50 μg GLIP sc) did it give?
**A.** proportionally shorter

**Q.** And the “delays in increase in blood levels, relative to 100 μg dose” value (200 μg GLIP sc)?
**A.** longer
